## Yeast mating assay 2: variants of the scFv Ab-91

The measurements come from Engelhart et al. 2022 (doi:10.1038/s41597-022-01779-4) through the FLAb antibody collection.

Target: peptide PDVDLGDISGINAS, taken from heptad repeat 2 (HR2) of SARS-CoV-2 spike.

Parent scFv Ab-91: VL joined to VH by a 15-residue (Gly4Ser)3 linker. Changes lie in the heavy chain CDRs alone.
VL: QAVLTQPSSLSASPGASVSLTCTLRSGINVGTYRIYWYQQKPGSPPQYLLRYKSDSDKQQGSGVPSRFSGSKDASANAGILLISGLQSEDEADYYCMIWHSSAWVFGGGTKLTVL
VH: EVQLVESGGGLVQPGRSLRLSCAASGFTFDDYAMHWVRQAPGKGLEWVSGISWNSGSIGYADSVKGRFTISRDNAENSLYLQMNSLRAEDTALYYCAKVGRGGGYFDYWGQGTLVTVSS

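The starting antibody came from a phage panning campaign against this peptide. Variants in AAYL51 differ from the parent at up to three CDR positions; double and triple changes were sampled at random. AlphaSeq pools MATa yeast showing the antibodies with MATalpha yeast showing the peptide. The frequency of each diploid, read from paired DNA barcodes, reflects how well the two displayed proteins bind. Read counts were normalised to the haploid input and turned into Kd by a linear fit to BCL2-family pairs of known affinity, for each replicate. There are three technical replicates.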

Substitutions are numbered in sequence along the VH above, starting at 1 (not Kabat). The read-out is the apparent dissociation constant on a log10 scale (nM): the lower, the stronger. The mean shown is taken over the replicates in which the pair was detected. "not detected" marks a missing value. The strain was present, yet no cells mated with the target were sequenced in any replicate, which points to weak or no binding.

mean log10 Kd (nM) | replicates with signal | changes
5.58 | 2 of 3 | A33M I51P W53S
3.57 | 1 of 3 | D31K S57P
3.97 | 1 of 3 | M34L W53Q G59P
5.50 | 3 of 3 | F29H I51H Y60H
4.51 | 2 of 3 | H35E G100V Y105S
not detected | 0 of 3 | A33I W53A Y105D
3.59 | 3 of 3 | G26C H35C G103C
not detected | 0 of 3 | F27D Y60G V99C
not detected | 0 of 3 | A33F G50F N54F
0.85 | 3 of 3 | D31V S63M
4.75 | 1 of 3 | H35D W53G
4.33 | 1 of 3 | M34V I51E V64M
3.98 | 1 of 3 | T28N G103D Y105S
not detected | 0 of 3 | M34D G50Q G104V
2.54 | 1 of 3 | M34W G50A G103H
4.25 | 3 of 3 | G26P D31I G102F
not detected | 0 of 3 | F29W S52F G59Y
5.03 | 2 of 3 | N54E R101E Y105V
not detected | 0 of 3 | A33T I58V G102H
1.37 | 3 of 3 | D31T G56E
5.88 | 1 of 3 | G26R F27E G102C
5.29 | 2 of 3 | G100N R101D G104M
not detected | 0 of 3 | A33Q G104I D107E
5.30 | 3 of 3 | G50L N54K Y108D
3.90 | 1 of 3 | T28G Y32Q N54D
4.14 | 2 of 3 | D31M Y60G Y108A
1.01 | 3 of 3 | I58H G104Q Y105Q
not detected | 0 of 3 | F27K F29T N54K
4.95 | 2 of 3 | F27R D30N W53T
not detected | 0 of 3 | V64L K65P F106I
not detected | 0 of 3 | F27T S57G G59Q
not detected | 0 of 3 | T28R S52D A61D
4.36 | 1 of 3 | G26P R101A F106K
not detected | 0 of 3 | F29P W53D G103F
4.17 | 1 of 3 | V64W G104L Y105F
3.67 | 1 of 3 | G50S S52F Y108C
4.77 | 1 of 3 | I58P Y105W
5.00 | 1 of 3 | G26Q S55V K65A
not detected | 0 of 3 | D30Y N54F G102F
4.85 | 1 of 3 | F29L H35R S57Q
not detected | 0 of 3 | D31H A33V V99S
not detected | 0 of 3 | F29V N54G S63T
not detected | 0 of 3 | V64L G100Y Y108Q
5.93 | 2 of 3 | G26M V64T R101F
not detected | 0 of 3 | S55V V99D F106V
5.14 | 2 of 3 | W53G V99L

For reference, 4 entries of the list once more:

changes	mean log10 Kd (nM)	replicates with signal
I58H G104Q Y105Q	1.01	3 of 3
V64W G104L Y105F	4.17	1 of 3
D31M Y60G Y108A	4.14	2 of 3
M34L W53Q G59P	3.97	1 of 3

Nonspecific signal, from three strains lacking the peptide, appeared in 21% of pairings of library AAYL51, centred on 4.54 (5% of these signals below 3.26); values are not corrected for it.